Literature values, collected in patent publication EP0657176B1, “Composition containing a water-insoluble or slightly water-soluble compound with enhanced water-solubility” (priority 1993, dated 1995).

Settings: cited from earlier work

## γ-cyclodextrin
  water-solubilities: about 23%
